From patent US20240335443A1, “IMIDAZOLOPYRIDAZINE OR PYRAZOLOPYRIMIDINE COMPOUNDS AND COMPOSITIONS” (Anrui Biomedical Technology (Guangzhou) Co., Ltd., priority 2021, published 2024)

Protein sequences, listed by entry. Tags and fused reporters are not part of them. Residues count along the entry.
UniProt P29597, 589-875 limits assumed: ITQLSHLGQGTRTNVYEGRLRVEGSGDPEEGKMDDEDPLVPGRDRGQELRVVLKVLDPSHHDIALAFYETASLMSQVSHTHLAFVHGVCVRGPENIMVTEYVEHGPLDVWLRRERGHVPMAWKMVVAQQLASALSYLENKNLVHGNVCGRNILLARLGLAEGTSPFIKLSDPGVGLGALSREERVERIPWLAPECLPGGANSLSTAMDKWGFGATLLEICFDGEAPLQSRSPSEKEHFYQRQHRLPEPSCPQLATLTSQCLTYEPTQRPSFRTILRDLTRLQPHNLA

Key:
[1] = tested on: IL-23 induced STAT3 in HEK-Blue™ IL-23 cells; experiment: IL-23 induced STAT3 QUANTI-Blue reporter assay in HEK-Blue IL-23 cells; settings: read-out: IL23 reporter assay (IC50 nM), IL-23 0.1 ng/mL, SEAP levels, class symbols
[2] = target: N-terminal His-tagged TYK2 pseudokinase domain (Homo sapiens, UniProt P29597); experiment: TYK2 JH2 domain SPA binding assay; settings: read-out: TYK2 JH2 SPA Binding assay (IC50 nM); displacement of H3 probe (20 nM), 30 min room temperature; class symbols

CNc1cc(Nc2cccn(-c3ccccn3)c2=O)nc2c(C(=O)N[C@@H]3C[C@@H]4CCO[C@@H]43)cnn12 (relative stereo)
IC50 [1]: 100 to 1000 nM
IC50 [2]: > 1000 nM

[2H]C([2H])([2H])Nc1cc(Nc2cccn(-c3ccccn3)c2=O)nn2c(C(=O)N[C@@H]3C[C@@H]4CCO[C@@H]43)cnc12 (relative stereo)
IC50 [1]: 100 to 1000 nM
IC50 [2]: > 1000 nM

[2H]C([2H])([2H])Nc1cc(Nc2cccn(-c3ccccn3)c2=O)nn2c(C(=O)N[C@@H]3C[C@H]4CCO[C@H]43)cnc12 (relative stereo)
IC50 [1]: 10 to 100 nM
IC50 [2]: 10 to 100 nM
